Two compounds from publication PMC7383931, “Novel Thienopyrimidine Inhibitors of Leishmania N-Myristoyltransferase with On-Target Activity in Intracellular Amastigotes” (Journal of Medicinal Chemistry, 2020) can be followed below.

The structures appear in SMILES notation.

The assay concerns NMT (protein myristoylation) in L. donovani amastigotes. Put plainly: microbe, parasite or virus in culture. Particulars: Leishmania donovani, read-out: TC50 (CI95), tagging IC50.

One may read the IC50 as the concentration at which inhibition is half-maximal. For the compound `CN1CCC(N(C)c2nc(N(C)CCC#N)c3sccc3n2)CC1` [Compound 1, 3-(Methyl(2-(methyl(1-methylpiperidin-4-yl)amino)thieno[3,2-d]pyrimidin-4-yl)amino)propanenitrile], the concentration for half-maximal inhibition (IC50) worked out at 21.6 µM.
In the case of `CN1CCC(N(C)c2nc(N(C)CCC#N)c3ccccc3n2)C1` (centres unmarked) [Compound 26, 3-(Methyl(2-(methyl(1-methylpyrrolidin-3-yl)amino)quinazolin-4-yl)amino)propanenitrile] it was 32.5 µM.
